From patent publication US8076485B2, “Methylphenidate derivatives and uses of them” (priority 2005, dated 2011)

Tested on: IL-8
Test: IL-8 release by TNFα-stimulated HUVECs (ELISA)
Format: cell-based, human
Conditions: 10 ng/ml TNFα 18 hours, 10 μM, TNFα + water 35572 ± 967.74
Method: Passage 4 HUVECs, human source lot number 8710 (obtained from ATCC), were put into the wells of a 24-well tissue culture plate at 5,000 cells/well in EGM-2 medium and cultured for 72 hours at 37° C. and 5% CO2. […] After incubation for 1 hour at 37° C. and 5% CO2, TNFα (Pierce) was added to give a final concentration of 10 ng/ml, and the cells were incubated for an additional 18 hours at 37° C. and 5% CO2. After this incubation, the supernatants were collected, and the amount of IL-8 in the supernatants determined by ELISA as described in Example 4.

Q: Which “Mean IL-8” value does the source give for `C[C@@H]1C[C@H]2[C@@H]3CCC4=CC(=O)C=C[C@]4(C)[C@@]3(F)[C@@H](O)C[C@]2(C)[C@@]1(O)C(=O)CO` [dexamethasone, reference compound] here?
A: 35952 ± 2197.14 pg/mL
